Columns and labels:
[1] = tested on: 4-hydroxyphenylpyruvate dioxygenase (HPPD), rat or human liver cytosol; assay: Release of 14CO2 from 4-hydroxyphenyl(1-14C)pyruvate, liver cytosol as enzyme source; assay type: biochemical; conditions: at concentrations of 100 nM or less; Compound or pharmaceutically acceptable salt
Excerpt: Alternatively, an assay based on that described by Lindstedt and co-workers (Methods in Enzymology, 1987, 142, 139-142 and 143-148) and involves monitoring the effects of a test substance on the release of ^14 CO2 from 4-hydroxyphenyl(1-^14 C)pyruvate using rat or human liver cytosol as the enzyme source.

[2] = tested on: 4-hydroxyphenylpyruvate dioxygenase (HPPD), rat liver cytosol; assay: Oxygen consumption of rat liver enzyme with 4-hydroxyphenylpyruvate (oxygen electrode); assay type: biochemical; conditions: at concentrations of 100 nM or less; Compound or pharmaceutically acceptable salt
Experimental: One such procedure involves monitoring the oxygen consumption of the rat liver enzyme in the presence of its substrate, 4-hydroxyphenylpyruvate. A typical assay according to this procedure uses an oxygen electrode with 0.2M sodium phosphate buffer at pH 7.2 (3.8 mL) in the reaction vessel at 37° C. Ascorbate (about 7 μM final concentration) and rat liver cytosol (105,000×g supernatant-about 0.2 mL, equivalent to 5 mg of protein) are then added. After equilibration to 37° C. for 3-5 minutes, the enzymatic reaction is started by the addition of the substrate, 4-hydroxyphenylpyruvate (about 200 μM final concentration). A test substance may be evaluated in this assay either by incubation with the enzyme for about 5 minutes prior to starting the reaction with substrate or by injecting the test active ingredient into the reaction vessel together with the substrate.

O=C1CCCC(=O)C1C(=O)c1ccc(C(F)(F)F)cc1[N+](=O)[O-] [the Compound, 2-(2-nitro-4-trifluoromethylbenzoyl)-1,3-cyclohexanedione]
reduction in release of 14CO2 [1]: > 30% | inhibition of oxygen uptake [2]: > 30%

— patent US5550165A, “Pharmaceutical compositions for the treatment of hereditary tyosinemia type I” (Zeneca Limited, priority 1991, dated 1996)
